From publication PMC3479967, “Drug-Drug Interactions Potential of Icariin and Its Intestinal Metabolites via Inhibition of Intestinal UDP-Glucuronosyltransferases” (Evidence-based Complementary and Alternative Medicine : eCAM, 2012)

Columns and labels:
[1] = biological target: T1, UGT1A4 (Homo sapiens, UniProt P22310); experiment: Inhibition of recombinant UGT1A4 activity (TFP glucuronidation); format: biochemical
T1 construct: purchased BD Gentest Corp. (Woburn, MA, USA); host or cells: baculovirus-infected insect cells
T1 sequence (P22310 29-534): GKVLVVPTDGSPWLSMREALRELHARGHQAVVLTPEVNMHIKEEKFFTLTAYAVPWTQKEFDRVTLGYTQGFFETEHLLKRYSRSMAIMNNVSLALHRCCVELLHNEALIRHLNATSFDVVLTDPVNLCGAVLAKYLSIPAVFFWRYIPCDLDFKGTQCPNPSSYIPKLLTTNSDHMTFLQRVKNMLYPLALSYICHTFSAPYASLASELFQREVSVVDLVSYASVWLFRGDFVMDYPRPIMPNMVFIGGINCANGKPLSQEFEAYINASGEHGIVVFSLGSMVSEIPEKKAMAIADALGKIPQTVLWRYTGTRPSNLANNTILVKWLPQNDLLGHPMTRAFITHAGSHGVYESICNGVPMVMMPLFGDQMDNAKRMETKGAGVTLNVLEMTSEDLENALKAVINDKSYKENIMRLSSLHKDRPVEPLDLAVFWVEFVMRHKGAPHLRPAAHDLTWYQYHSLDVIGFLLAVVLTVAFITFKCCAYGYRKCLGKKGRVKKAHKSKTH
Experimental: TFP was used as the substrate for UGT1A4. Trifluoperazine glucuronide (TFPG) formation was measured using a modification of the method reported. […] Reactions were initiated by the addition of UDPGA and incubations were performed at 37°C in a shaking water bath for 20 min. Incubations were terminated by the addition of 4% acetic acid/96% methanol (0.2 mL) and then centrifuged at 20,500 ×g for 15 min. A 40 μL aliquot of the supernatant fraction was injected into the HPLC column. […] A gradient mobile phase consisting initially of 30 : 70, mobile phase A (acetonitrile) verse mobile phase B (0.5% formic acid/water) was brought to a composition of 90 : 10 in 10 min which was held for 7 min, all at a flow rate of 1 mL/min. Column eluant was monitored by UV absorbance 256 nm. […] The negative controls are the incubation without UDPGA.

[2] = biological target: T2, UGT1A3 (Homo sapiens, UniProt P35503); experiment: Inhibition of recombinant UGT1A3 activity (4-MU glucuronidation); conditions: read-out: IC50 for inhibition of UGT1A3 activity; recombinant human UGT1A3, 1200 μM 4-MU, mean ± SD
T2 sequence (P35503 29-534): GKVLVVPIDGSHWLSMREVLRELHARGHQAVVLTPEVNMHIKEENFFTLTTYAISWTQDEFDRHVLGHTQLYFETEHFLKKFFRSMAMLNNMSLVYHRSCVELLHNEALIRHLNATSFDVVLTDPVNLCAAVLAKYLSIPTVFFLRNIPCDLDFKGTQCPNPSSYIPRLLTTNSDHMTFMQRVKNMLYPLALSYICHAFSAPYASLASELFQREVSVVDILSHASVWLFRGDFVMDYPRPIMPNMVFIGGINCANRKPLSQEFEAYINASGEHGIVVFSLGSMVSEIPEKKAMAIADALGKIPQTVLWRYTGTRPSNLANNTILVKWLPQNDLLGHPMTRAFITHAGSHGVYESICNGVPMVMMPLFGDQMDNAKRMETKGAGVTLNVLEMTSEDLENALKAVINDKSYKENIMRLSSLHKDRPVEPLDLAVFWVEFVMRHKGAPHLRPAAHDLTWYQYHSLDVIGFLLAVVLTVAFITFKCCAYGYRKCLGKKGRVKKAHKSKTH
Experimental: A panel of recombinant human UGT supersomes (UGT1A1, UGT1A3, UGT1A4, UGT1A6, UGT1A7, UGT1A8, UGT1A9, UGT1A10, UGT2B4, UGT2B7, UGT2B15, and UGT2B17) expressed in baculovirus-infected insect cells were purchased from BD Gentest Corp. (Woburn, MA, USA).
4-MU, a nonselective substrate of UGTs, was used as probe substrate for all UGTs except UGT1A4. Incubations with each individual enzyme were conducted using conditions previously described. There was a 5 min preincubation step at 37°C before the reaction was started by addition of UDPGA. The incubation mixtures were then centrifuged at 20,500 ×g for 15 min to obtain the supernatant. Aliquots (20 μL) were then analyzed by HPLC. The HPLC system (SHIMADZU, Kyoto, Japan) consisted of an SCL-10A system controller, two LC-10AT pumps, a SIL-10A auto injector, and a SPD-10AVP UV detector. […] The mobile phase consisted of 10 mM KH2PO4, pH 2.7 (A) and acetonitrile (B). […]
Inhibition data from experiments were graphically represented by Dixon plots. K i values were calculated by nonlinear regression using the equations for competitive inhibition (1), noncompetitive inhibition (2), or mixed inhibition (3), [22] […] The type of inhibition was determined from the enzyme inhibition models. […]

## Icariside II
[1]; recombinant UGT1A4, TFP substrate, mean ± standard error, read-out: Ki against UGT1A4
  Ki: 1900 ± 300 nM
[1]; recombinant human UGT1A4, 50 μM TFP, mean ± SD
  IC50: 2900 ± 100 nM
[2]
  IC50: > 100000 nM
